Source: patent US20220000998A1, “BI-SPECIFIC CONJUGATES” (priority 2019, published 2022)

Key:
[1] = Peptide tag stability in mouse plasma by LC-MS/MS; conditions: 10 μM peptide, 37° C., up to 17 hours
[2] = Peptide tag stability in human plasma by LC-MS/MS; conditions: 10 μM peptide, 37° C., up to 17 hours

Row | SMILES | t1/2 [h] in mouse plasma [1] | t1/2 [h] in human plasma [2]
1 | CC[C@H](C)[C@H](N)C(=O)N[C@@H](CC(=O)O)C(=O)N[C@H](C(=O)N[C@@H](CCCCN)C(=O)N[C@@H](CC(N)=O)C(=O)N[C@@H](CC(=O)O)C(=O)N[C@@H](CC(C)C)C(=O)N[C@@H](Cc1ccc(O)cc1)C(=O)N[C@@H](CCC(=O)O)C(=O)N[C@@H](CCCCN)C(=O)N[C@H](C(=O)N[C@@H](CC(C)C)C(=O)N[C@@H](CC(N)=O)C(=O)N[C@@H](CC(=O)O)C(=O)N[C@@H](Cc1ccc(O)cc1)C(=O)N[C@@H](CCCCN)C(=O)N[C@@H](C)C(=O)N[C@H](C(=O)N[C@@H](C)C(=O)N[C@@H](CC(N)=O)C(=O)N[C@@H](CCCCN)C(=O)N[C@@H](CC(C)C)C(=O)N[C@@H](CO)C(=O)N[C@@H](CCC(N)=O)C(=O)N[C@H](C(=O)O)C(C)C)[C@@H](C)CC)[C@@H](C)O)[C@@H](C)CC | 5.6 h | 14 h
2 | CC[C@H](C)[C@H](NC(=O)CN)C(=O)N[C@@H](CC(C)C)C(=O)N[C@@H](Cc1ccccc1)C(=O)N[C@@H](CC(C)C)C(=O)N[C@@H](CCC(N)=O)C(=O)N[C@@H](Cc1c[nH]c2ccccc12)C(=O)N[C@H](C(=O)N[C@@H](CCCNC(=N)N)C(=O)N[C@@H](CC(=O)O)C(=O)N[C@H](C(=O)N[C@H](C(=O)N[C@@H](CC(=O)O)C(=O)N[C@@H](CC(=O)O)C(=O)N[C@@H](Cc1ccccc1)C(=O)N[C@H](C(=O)N[C@@H](CC(N)=O)C(=O)N[C@@H](CCC(=O)O)C(=O)N[C@@H](CO)C(=O)N[C@@H](CO)C(=O)N[C@@H](CCC(N)=O)C(=O)N[C@@H](CCCCN)C(=O)O)[C@@H](C)O)[C@@H](C)CC)[C@@H](C)CC)C(C)C | 5.7 h | 45 h
